Consider 4 compounds from patent US5236931A, “2-substituted benzamide and benzoate derivatives of 3-aminoquinuclidine and 3-quinuclidinol” (priority 1992, dated 1993).

Structures are written as SMILES.

The subject of one experiment is cisplatin-induced emesis. The experiment is described as follows: Effect on Cisplatin-induced Emesis in Dogs. To be noted: dog, 1.0 mg/kg IV; cisplatin 3.0 mg/kg IV.
In experiment [1] the test system is gastric emptying of a test meal. The experiment is described as follows: Effect on Gastric Emptying of a Test Meal in Rats. The class given is in vivo. To be noted: rat.
Experiment [2] deals with serotonin induced bradycardia (von Bezold-Jarisch reflex). The experiment can be described thus: Antagonism of the von Bezold-Jarisch Reflex (serotonin induced bradycardia in rats). To be noted: rat, 0.0316 mg/kg IV.

On to `COCCOc1cc(N)c(Cl)cc1C(=O)OC1CN2CCC1CC2` (centres unmarked), for which the “% inhibition of cisplatin-induced emesis” value in the experiment with cisplatin-induced emesis is given as 93%. Further, in experiment [1] (9.0 mg/kg IP), the “Gastric emptying: % change in meal emptied” value (“Gastric emptying: % change” for short) is 21%. Further, the “reduction of 5-HT induced bradycardia” value in experiment [2] is recorded as 70%.

`CSCCOc1cc(N)c(Cl)cc1C(=O)OC1CN2CCC1CC2` (centres unmarked): the “% inhibition of cisplatin-induced emesis” value in the experiment with cisplatin-induced emesis amounted to 75%. In addition, the “Gastric emptying: % change” value in experiment [1] (9.0 mg/kg IP) amounted to 40%.

With `C=CCNc1cc(OCC=C)c(C(=O)OC2CN3CCC2CC3)cc1Cl` (centres unmarked), in the experiment on cisplatin-induced emesis, the “% inhibition of cisplatin-induced emesis” value was 94%. Further, the “Gastric emptying: % change” value in experiment [1] (9.0 mg/kg IP) is given as 24%.

In the case of `C=CCOc1cc(N)c(Cl)cc1C(=O)OC1CN2CCC1CC2` (centres unmarked), in experiment [1] (10 mg/kg IP), the “Gastric emptying: % change” value is 63%.
